Experimental data from patent US20230295596A1, “SHORT-ACTING FACTOR VII POLYPEPTIDES” (published 2023).

Target: V2, variant of human Factor VII (P10Q, K32E, A34E, R36E, T106N and V253N) (human)

Question: With “neuraminidase-agarose (Sigma N5254) (enzyme)” as the substance, how does the sialic acid removed (Sialic Acid Fluorescence Labeling) read?
Answer: Its sialic acid removed (Sialic Acid Fluorescence Labeling) is over 99.9%.
